Here are results for one compound from patent publication US20030032774A1, “Novel opioid peptides for the treatment of pain” (priority 1994, published 2003).

This experiment relates to hot-plate response in mice. The following applies: mouse, in vivo.

On to `CN1CC[C@]23c4c5ccc(O)c4O[C@H]2[C@@H](O)C=C[C@H]3[C@H]1C5` [morphine, reference compound], for which the “reaction time in the hot plate test” value is on record as “approximately 17 seconds”.
